Results on three molecules are retold here after PMC3735166, “Comparative Studies on Acetylcholinesterase Characteristics between the Aphids, Sitobion avenae and Rhopalosiphum padi” (Journal of Insect Science, 2013).

The target of assay [1] is T1, purified AChE from S. avenae (Sitobion avenae, UniProt Q66S75).
T1 sequence (Q66S75 23-664): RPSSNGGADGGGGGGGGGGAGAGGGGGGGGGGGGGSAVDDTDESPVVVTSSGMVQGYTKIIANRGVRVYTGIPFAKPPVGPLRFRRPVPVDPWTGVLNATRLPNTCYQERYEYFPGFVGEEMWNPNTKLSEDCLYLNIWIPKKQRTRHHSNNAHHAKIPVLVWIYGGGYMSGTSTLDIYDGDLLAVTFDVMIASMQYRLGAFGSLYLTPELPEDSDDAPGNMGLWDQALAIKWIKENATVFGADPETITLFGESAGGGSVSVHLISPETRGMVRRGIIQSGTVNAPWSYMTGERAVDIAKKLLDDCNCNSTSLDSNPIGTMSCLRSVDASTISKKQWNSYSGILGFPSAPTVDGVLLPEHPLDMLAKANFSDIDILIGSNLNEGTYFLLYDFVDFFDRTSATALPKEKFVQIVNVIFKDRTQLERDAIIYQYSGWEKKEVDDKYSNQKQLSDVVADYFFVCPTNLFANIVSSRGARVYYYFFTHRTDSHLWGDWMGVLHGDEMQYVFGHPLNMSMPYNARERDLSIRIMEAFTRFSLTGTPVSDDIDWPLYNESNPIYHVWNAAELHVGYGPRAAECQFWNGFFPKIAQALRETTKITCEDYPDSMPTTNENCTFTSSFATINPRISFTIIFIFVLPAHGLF
The assay is described as follows: Inhibition of purified AChE from S. avenae (Ellman method, 5 min preincubation). The class given is biochemical. The following applies: ratio of I50 S. avenae / R. padi. As for the experimental part:
Purification of AChE from both aphid species was performed by affinity chromatography using procainamide as the affinity ligand. The procedure used in this study was according to the method of Gao and Zhu ([2001]) with some modifications, as follows:
(§1) Step 1: Preparation of crude extract. About 1.0 g apterous adults were homogenized in 10 mL ice-cold 0.1 M phosphate buffer (pH 7.5), containing 0.2 M NaCl and 0.5 % (v/v) Triton X-100 and three protease inhibitors (1 mM EDTA-Na2, 1 µM leupeptin, and 10 µM PMSF). The homogenate was filtered through cheesecloth and then centrifuged at 41,000 g, 4°C for 1 h. The supernatant, after being filtered through glass wool, was used as crude extract.
Step 2: Chromatography on sephadex G-25. […] The fractions (5 ml each) were collected at the flow rate of 45 mL/h at 4°C. All the fractions containing the AChE activity were collected as the enzyme resource for the next step.
Step 3: Procainamide affinity chromatography and removal of procainamide and condensation. The procainamide-based AChE affinity column was made according to the instructions from the manufacturer. […] The collected AChE dialyzed against 0.05 M, pH 7.5 phosphate buffer three times for 3 h. The enzyme was stored at 4°C and used as the enzyme source.
(§2) AChE activities were determined according to the method of Ellman et al. ([1961]) modified by Gao ([1987]), using ATCh, PrTCh, MeTCh and BuTCh as substrates. The AChE activities were determined at 6 substrate concentrations from 0.15625 to 5 mM based on the reaction at 30°C for 15 min and the reaction was stopped by the addition of 900 µL, DTNB (0.125 mM) with 40% ethanol, then the optical density (OD) was measured at 412 nm by spectrophotometer (Lambda Bio 40).
(§3) The value of median inhibition concentration (I50) for the inhibitors were calculated based on log (inhibitor concentration) vs. probit (percentage of inhibition) linear regression.
(Ellman's reagent forms a yellow product with free thiols.)

In assay [2] the target is T2, crude extract AChE from S. avenae (Sitobion avenae, UniProt Q66S75).
T2 sequence (Q66S75 23-664): T1 sequence (Q66S75 23-664)
The experiment in a line: Inhibition of crude extract AChE from S. avenae (Ellman method, 5 min preincubation). The following applies: ratio of I50 S. avenae / R. padi. Type of assay: biochemical. How it is done: as §1, §2, §3

Each structure is given as a SMILES string.

In the case of `Cc1nc(N(C)C)nc(OC(=O)N(C)C)c1C` [Pirimicarb], the “fold less sensitive to inhibition (I50 fold higher), S. avenae versus R. padi” value in assay [1] is reported as 1.6 fold. Also, the “fold less sensitive to inhibition, S. avenae versus R. padi” value in assay [2] was 5.4 fold.

For `CNC(=O)ON=C(C)SC` [Methomyl], in assay [1], the “fold less sensitive to inhibition (I50 fold higher), S. avenae versus R. padi” value is on record as 1.3 fold. For the same molecule, in assay [2], the “fold less sensitive to inhibition, S. avenae versus R. padi” value is 4.3 fold.

Turning to `CS/C(C)=N\OC(=O)N(C)SN(C)C(=O)O/N=C(\C)SC` [Thiodicarb], the “fold less sensitive to inhibition (I50 fold higher), S. avenae versus R. padi” value in assay [1] stood at 1.7 fold. Also, the “fold less sensitive to inhibition, S. avenae versus R. padi” value in assay [2] was found to be 8.1 fold.
